{"source": "patent EP1366764A1", "about": "“Method of screening for calcium receptor-active molecules” (The Brigham & Women's Hospital, Inc., priority 1993, dated 1994)", "tested_on": "bovine parathyroid cells", "test": "Measurement of cytosolic Ca2+ ([Ca2+]i, fura-2): mobilization of intracellular Ca2+ in bovine parathyroid cells", "format": "cell-based", "conditions": "tested at 2mM"}
{"smiles": "NCCCCN", "note": "[Putrescine]", "values": [{"measurement": "mobilization of intracellular Ca^2+", "result": "inactive"}]}
